Values quoted from earlier work, collected in patent publication US9409893B2, “Heteroaryl derivatives and uses thereof” (Jacobus Pharmaceutical Company, Inc., priority 2012, dated 2016).

Protein sequences, listed by entry. Tags and fused reporters are not part of them. Lines headed by an entry give the natural chain unless they say otherwise; changes in a name come on top.
UniProt Q12809: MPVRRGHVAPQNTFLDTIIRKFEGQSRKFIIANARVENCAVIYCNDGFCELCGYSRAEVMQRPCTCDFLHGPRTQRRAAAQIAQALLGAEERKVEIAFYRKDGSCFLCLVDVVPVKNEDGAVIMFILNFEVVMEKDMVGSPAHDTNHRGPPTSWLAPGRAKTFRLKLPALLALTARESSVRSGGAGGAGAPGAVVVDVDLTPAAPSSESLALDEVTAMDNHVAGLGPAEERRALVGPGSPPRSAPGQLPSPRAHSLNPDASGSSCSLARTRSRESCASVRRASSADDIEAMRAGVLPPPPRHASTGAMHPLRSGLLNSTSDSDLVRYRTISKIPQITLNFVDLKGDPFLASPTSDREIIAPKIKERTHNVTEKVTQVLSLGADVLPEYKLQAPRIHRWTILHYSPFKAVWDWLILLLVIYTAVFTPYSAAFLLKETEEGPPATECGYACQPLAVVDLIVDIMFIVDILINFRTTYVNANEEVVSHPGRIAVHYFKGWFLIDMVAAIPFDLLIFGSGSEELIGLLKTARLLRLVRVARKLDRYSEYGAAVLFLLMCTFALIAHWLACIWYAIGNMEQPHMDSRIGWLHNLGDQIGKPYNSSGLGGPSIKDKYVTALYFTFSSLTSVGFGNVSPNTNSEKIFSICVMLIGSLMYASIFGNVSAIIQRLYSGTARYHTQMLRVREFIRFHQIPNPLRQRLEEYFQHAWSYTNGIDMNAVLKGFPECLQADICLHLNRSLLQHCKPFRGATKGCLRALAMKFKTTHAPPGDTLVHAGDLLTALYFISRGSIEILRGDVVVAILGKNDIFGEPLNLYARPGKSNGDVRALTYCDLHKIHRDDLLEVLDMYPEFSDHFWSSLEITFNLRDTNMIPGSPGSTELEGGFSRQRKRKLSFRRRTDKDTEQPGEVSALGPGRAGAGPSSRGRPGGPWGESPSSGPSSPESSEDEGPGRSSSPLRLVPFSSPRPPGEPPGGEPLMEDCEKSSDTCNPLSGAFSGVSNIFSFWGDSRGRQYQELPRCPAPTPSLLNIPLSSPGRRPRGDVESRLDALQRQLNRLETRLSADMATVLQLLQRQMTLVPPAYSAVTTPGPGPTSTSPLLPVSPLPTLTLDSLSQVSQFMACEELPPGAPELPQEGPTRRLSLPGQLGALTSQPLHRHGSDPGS

Molecular target: hERG potassium channel (Homo sapiens, UniProt Q12809)
Settings: 90 nM, previous results (positive control rationale); cited from earlier work

COc1cc(N)c(Cl)cc1C(=O)NC1CCN(CCCOc2ccc(F)cc2)CC1OC (stereo not shown) [Cisapride]
Inhibition of hERG potassium current: approximately 80%
